In US20260382581A1, “COMPOSITIONS COMPRISING CYTISINE IN THE TREATMENT AND/OR PREVENTION OF ADDICTION IN SUBJECTS IN NEED THEREOF” (published 2026):
Where “and” joins values, the source holds several entries; their conditions need not be identical. Identical values can stand only once.

Tested on: adult users of nicotine e-cigarettes
Assay: claude (Example 3): vaping cessation from Week 9 to Week 12 (primary endpoint; odds ratios, relative risks, risk differences, exact tests)
Method: This Example describes a Phase 2 ORCA-V1 trial evaluated 160 adult e-cigarette users at 5 clinical trial locations in the United States. The trial completed enrollment in approximately 4 months. ORCA-V1 participants were randomized to receive 3 mg cytisinicline three times daily or placebo for 12 weeks in combination with standard cessation behavioral support. The dose and administration of cytisinicline in the ORCA-V1 study is identical to that used in the Phase 3 registrational trials for smoking cessation.
To evaluate cytisinicline as an aid to vaping cessation in adult users of nicotine e-cigarettes who intend to quit, a multi-center, double-blind, randomized, placebo-controlled study was conducted. Subjects were randomized 2:1 (100 cytisinicline: 50 Placebo) with 160 total randomized (FIG. 56). Subjects were stratified on whether they have smoked>100 cigarettes in their lifetime (yes vs no) (FIG. 57). Study size will have 95% power to detect a ~19% reduction in cotinine levels from baseline. Odds ratio (95% confidence interval) will exclude one when cytisinicline abstinence success is >18%; Example, a 6% placebo rate versus 18% outcome or odds ratio of 3.44 will be significant. Missing data may be assumed as reported vaping. Quit rates for 3 mg cytisinicline vs placebo results in odds ratio of 2.64 (P=0.036) (FIGS. 58A and B).
The first measurement consisted of biochemically verified continuous vaping abstinence during the last 4 weeks of treatment after 12 weeks of cytisinicline treatment vs placebo. Vaping abstinence during weeks 9-12 was verified with no reported vaping with weekly saliva cotinine levels<10 ng/mL. Primary Analysis with prospective stratification factor odds ratio was 2.64 (p=0.035), primary analysis with site as a stratification factor odds ratio was 3.03 (p=0.017), and primary analysis without any stratification factor odds ratio was 2.62 (p=0.035) (FIG. 59).
Odds ratio (OR): an OR estimate materially greater than one indicates benefit. The OR is the ratio of the odds of success in the Cytisinicline Arm divided by the offs of success in the Placebo Arm. The odds for arm is the ratio of the probability of success divided by the probability of non-success (FIGS. 58A and B).
Probability Difference: A probability difference estimate materially greater than zero indicates benefit. A probability difference is the probability of success in the Cytisinicline Arm minus the probability of success in the Placebo Arm.
In stratified 2×2 frequency table: the 2×2 structure is arm by the binary outcome. In 2×2 frequency table: arm by the binary outcome.
Primary Analysis: Analysis of primary response outcome using stratified 2×2 exact methodology: (<100 cigarettes in a lifetime or not) by arm by primary response. Variability results from a Cochran-Mantel-Haenszel analysis are shown (FIGS. 39 and 40). Effect size of interest is the estimate of the common odds ratio.
Primary Marginal and Secondary Outcomes: the primary outcome analysis (not stratified) and the secondary outcomes are analyzed using Fisher's exact test. A forest graph compares the primary outcome marginal and secondary outcome effects (FIG. 43)
Vaping cessation is defined for each subject as binary: success versus failure. Success is biochemically verified vaping abstinence documented at Weeks 9, 10, 11, and 12. At each visit, success will be defined for an individual subject as having reported vaping abstinence (no nicotine-containing vaping since the last clinic visit) and having saliva cotinine<10 ng/mL.

[1] = Week 9 to 12, Table 52 (S = 1), row total 77
[2] = Week 9 to 12, controlling for S = 0, row total 30
[3] = X by Y controlling for S, Week 9 to 12, vs placebo
[4] = additional statistics, X by Y, N = 160, Week 9 to 12, vs placebo

Compound: O=c1cccc2n1C[C@@H]1CNC[C@H]2C1
- vaping cessation rate weeks 9-12 (3 mg TID 12 weeks): 31.8%
- odds to have quit vaping during last 4 weeks of treatment (times higher vs placebo) (3 mg TID 12 weeks, p=0.035): 2.6 times
- odds ratio, vaping cessation weeks 9-12 (3 mg TID vs placebo, prospective stratification factor (smoked >100 cigarettes)): 2.64
- Vaping cessation from Week 9 to Week 12, % (12 wks cytisinicline, All Randomized Set, N = 107): 31.8% and 31.78%
- Risk Difference, lower 95% confidence limit, Exact (Score) (Column 1 (Y = 0)): 0.0072
- Risk Difference, upper 95% confidence limit, Exact (Score) (Column 1 (Y = 0)): 0.2921
- Risk Difference, vaping cessation Week 9 to 12 (Column 1 (Y = 0), 3 mg TID vs placebo): Risk Difference = 0.1668
- Relative Risk (Week 9 to 12, S = 0, N = 45, column 1 = no cessation): 1.2632
- Relative Risk (Week 9 to 12, S = 0, N = 45, column 2 = cessation): 0.5455
- Relative Risk (Week 9 to 12, Table 52 (S = 1), N = 115, column 1 = no cessation): 1.2383
- Relative Risk (Week 9 to 12, Table 52 (S = 1), N = 115, column 2 = cessation): 0.4405
- No vaping cessation (X = 1, Y = 0), frequency [1]: 54
- Vaping cessation (X = 1, Y = 1), row pct [1]: 29.87 Pct
- No vaping cessation (X = 1, Y = 0), frequency (Week 9 to 12, all subjects, row total 107): 73
- No vaping cessation (X = 1, Y = 0), frequency [2]: 19
- Vaping cessation (X = 1, Y = 1), row pct [2]: 36.67 Pct
- Common Odds Ratio, Logit [3]: 2.6304
- Common Odds Ratio, Mantel-Haenszel [3]: 2.6375
- Common Odds Ratio, Logit [4]: 2.6199
- Common Odds Ratio, Mantel-Haenszel [4]: 2.6199
- Column 2 Risk Estimate, Row 2 (cessation, Week 9 to 12, Table 61): 0.3178
- Column 1 Risk Estimate, Row 2 (no cessation, Week 9 to 12, Table 61): 0.6822
- Column 1 Risk Difference (Row 1-Row 2) (no cessation, placebo minus cytisinicline, Week 9 to 12): 0.1668
- odds ratio, vaping cessation weeks 9-12 (site as stratification factor, p=0.017): 3.03
- Vaping cessation from Week 9 to Week 12, % (stratum >100 cigarettes in lifetime = No, % of N = 107): 10.3%
- Vaping cessation from Week 9 to Week 12, % (stratum >100 cigarettes in lifetime = Yes, % of N = 107): 21.5%
- Odds Ratio (vaping cessation Week 9 to 12, S = 0, N = 45, vs placebo): 2.3158
- Odds Ratio (vaping cessation Week 9 to 12, Table 52 (S = 1), N = 115, vs placebo): 2.8111
- Marginal Odds Ratio (95% CI) (vaping cessation Week 9 to 12, placebo as reference, MIDP CI): 2.62 (1.133, 6.491)
- Common Odds Ratio (95% CI) (vaping cessation Week 9 to 12, placebo as reference, stratified): 2.64 (1.062, 7.098)
- Marginal Difference in Proportions (95% CI) (vaping cessation Week 9 to 12, vs placebo): 0.17 (0.012, 0.284)
- odds ratio, vaping cessation weeks 9-12 (without any stratification factor, p=0.035): 2.62
